{"source": "patent US20190218214A1", "about": "“Inhibition of BMP Signaling Compounds, Compositions and Uses Thereof” (Vanderbilt University, priority 2016, published 2019)", "key": {"[1]": {"test": "in vitro", "details": "human, hepatocytes"}, "[2]": {"test": "In vivo dose escalation, rat (oral)"}}}
{"smiles": "Cc1cc(-c2cnc3cc(-c4ccc(N5CCNCC5)cc4)ccn23)c2ccccc2n1", "note": "[Compound 25]", "values": [{"measurement": "half-life", "setting": "[1]", "value": 4.72, "unit": "h"}, {"measurement": "Cmax", "setting": "[2]; 3 mg/kg", "value": 127, "unit": "ng/mL"}, {"measurement": "bioavailability", "setting": "[2]; 3 mg/kg", "value": 45, "unit": "%"}, {"measurement": "Cmax", "setting": "[2]; 10 mg/kg", "value": 338, "unit": "ng/mL"}, {"measurement": "bioavailability", "setting": "[2]; 10 mg/kg", "value": 42, "unit": "%"}, {"measurement": "Cmax", "setting": "[2]; 30 mg/kg", "value": 1740, "unit": "ng/mL"}, {"measurement": "bioavailability", "setting": "[2]; 30 mg/kg", "value": 76, "unit": "%"}, {"measurement": "Cmax", "setting": "[2]; 100 mg/kg", "value": 2980, "unit": "ng/mL"}, {"measurement": "bioavailability", "setting": "[2]; 100 mg/kg", "value": 46, "unit": "%"}]}
{"smiles": "Cc1cc(-c2cnc3cc(-c4ccc(N5CCNCC5)cc4)ccn23)c2cc(F)cc(F)c2n1", "note": "[Compound 17]", "values": [{"measurement": "Cmax", "setting": "[2]; 3 mg/kg", "value": 95, "unit": "ng/mL"}, {"measurement": "half-life", "setting": "[2]; 3 mg/kg", "value": 3.78, "unit": "h"}, {"measurement": "Cmax", "setting": "[2]; 10 mg/kg", "value": 294, "unit": "ng/mL"}, {"measurement": "half-life", "setting": "[2]; 10 mg/kg", "value": 4.5, "unit": "h"}, {"measurement": "Cmax", "setting": "[2]; 30 mg/kg", "value": 1390, "unit": "ng/mL"}, {"measurement": "half-life", "setting": "[2]; 30 mg/kg", "value": 6.7, "unit": "h"}, {"measurement": "Cmax", "setting": "[2]; 100 mg/kg", "value": 3480, "unit": "ng/mL"}, {"measurement": "half-life", "setting": "[2]; 100 mg/kg", "value": 15.9, "unit": "h"}]}
